{"sequences": {"note": "Sequences of proteins named here, by UniProt entry; tags and fusion partners are left off.", "UniProt P10275, whole entry": "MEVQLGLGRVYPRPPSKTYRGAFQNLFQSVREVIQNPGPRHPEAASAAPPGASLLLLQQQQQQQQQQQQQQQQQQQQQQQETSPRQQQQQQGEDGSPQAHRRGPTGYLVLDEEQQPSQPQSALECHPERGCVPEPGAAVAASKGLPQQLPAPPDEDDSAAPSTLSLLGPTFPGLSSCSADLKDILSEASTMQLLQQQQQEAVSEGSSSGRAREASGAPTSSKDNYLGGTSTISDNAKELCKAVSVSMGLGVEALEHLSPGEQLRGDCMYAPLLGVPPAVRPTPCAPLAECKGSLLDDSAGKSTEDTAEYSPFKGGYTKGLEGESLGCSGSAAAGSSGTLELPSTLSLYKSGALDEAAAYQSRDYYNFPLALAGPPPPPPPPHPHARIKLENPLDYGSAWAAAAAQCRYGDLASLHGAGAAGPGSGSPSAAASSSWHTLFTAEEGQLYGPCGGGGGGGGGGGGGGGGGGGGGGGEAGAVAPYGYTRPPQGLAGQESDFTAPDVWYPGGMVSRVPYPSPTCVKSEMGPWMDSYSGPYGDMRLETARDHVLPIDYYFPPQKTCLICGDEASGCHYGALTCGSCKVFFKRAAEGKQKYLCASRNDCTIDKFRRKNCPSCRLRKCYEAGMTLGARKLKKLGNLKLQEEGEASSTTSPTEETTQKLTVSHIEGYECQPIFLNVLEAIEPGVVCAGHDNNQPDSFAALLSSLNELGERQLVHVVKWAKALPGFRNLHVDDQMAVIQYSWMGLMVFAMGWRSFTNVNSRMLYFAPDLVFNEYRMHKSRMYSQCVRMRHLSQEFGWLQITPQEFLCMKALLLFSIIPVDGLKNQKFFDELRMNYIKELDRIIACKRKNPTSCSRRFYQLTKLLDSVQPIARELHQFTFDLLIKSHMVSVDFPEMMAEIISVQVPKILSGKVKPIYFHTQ"}, "source": "patent US20190209539A1", "about": "“THIOHYDANTOIN ANDROGEN RECEPTOR ANTAGONISTS FOR THE TREATMENT OF CANCER” (Janssen Pharmaceutica NV, priority 2016, published 2019)", "key": {"[1]": {"biological_target": "T1, wild-type Androgen Receptor (AR-wt) (Homo sapiens, UniProt P10275)", "experiment": "LNCaP-AR-wt ANT: ARE luciferase reporter assay, antagonist mode", "assay_type": "cell-based", "details": "400 pM R-1881 challenge"}, "[2]": {"biological_target": "T1, wild-type Androgen Receptor (AR-wt)", "experiment": "LNCaP-AR-wt AG: ARE luciferase reporter assay, agonist mode", "assay_type": "cell-based"}}}
{"smiles": "CN1CCC(Oc2ccc(N3C(=S)N(c4cnc(C#N)c(C(F)(F)F)c4)C(=O)C3(C)C)cc2)CC1", "values": [{"measurement": "LNCaP-AR-wt ANT pIC50", "setting": "[1]", "value": 6.06}, {"measurement": "LNCaP-AR-wt AG pEC50", "setting": "[2]; agonist mode", "value": "<4.82"}, {"measurement": "LNCaP-AR-wt AG MAX % Stim", "setting": "[2]; maximum % stimulation (agonist response), % of 1 μM R-1881 max", "value": 0.3, "unit": "%"}]}
